From patent US9980949B2, “SNS-595 and methods of using the same” (Sunesis Pharmaceuticals, Inc., priority 2004, dated 2018)

System: HCT116 cells
Experiment: Combination studies with SNS-595, MTT assay, median-effect Combination Index
Format: cell-based
Conditions: combination with SNS-595 at constant ratio, 72 hours, <0.90 synergistic, 0.90-1.10 additive, >1.10 antagonistic
Description: The final DMSO concentration was 1% in the assay plate. The treated cells were incubated for 72 hours at 37° C., 5% CO2 before adding 20 μl/well 3-[4,5-dimethylthiazol-2-yl]-2,5-diphenyltetrazolium bromide (MTT) for 1 hour followed by 100 μl/well N,N-dimethyl formamide/SDS lysis buffer for at least 16 hours. The plates were read for absorbance at a wavelength of 595 nm. The data was worked up using the median-effect method that quantifies the interaction using a Combination Index (calculated using the software for dose effect analysis, Calcusyn V2(Biosoft). A combination is said to be additive if it yields a Combination Index of 0.90-1.10. A combination is said to be synergistic if it yields a Combination Index less than 0.90 and a combination is said to be antagonistic if it yields a Combination Index of more than 1.10. All Combination Index calculations were at a Fa value of 0.5, the point where 50% of the cells were dead. See Table 2.

Which “Combination Index @ Fa = 0.5” value does the source give for COc1cccc2c1C(=O)c1c(O)c3c(c(O)c1C2=O)C[C@@](O)(C(C)=O)C[C@@H]3O[C@H]1C[C@H](N)[C@H](O)[C@H](C)O1 [Daunomycin] here?
The value was 0.48.
